Chains of the proteins cited; added tags and fusions are not shown. Residues count along the entry.
UniProt Q12879, 23-1464: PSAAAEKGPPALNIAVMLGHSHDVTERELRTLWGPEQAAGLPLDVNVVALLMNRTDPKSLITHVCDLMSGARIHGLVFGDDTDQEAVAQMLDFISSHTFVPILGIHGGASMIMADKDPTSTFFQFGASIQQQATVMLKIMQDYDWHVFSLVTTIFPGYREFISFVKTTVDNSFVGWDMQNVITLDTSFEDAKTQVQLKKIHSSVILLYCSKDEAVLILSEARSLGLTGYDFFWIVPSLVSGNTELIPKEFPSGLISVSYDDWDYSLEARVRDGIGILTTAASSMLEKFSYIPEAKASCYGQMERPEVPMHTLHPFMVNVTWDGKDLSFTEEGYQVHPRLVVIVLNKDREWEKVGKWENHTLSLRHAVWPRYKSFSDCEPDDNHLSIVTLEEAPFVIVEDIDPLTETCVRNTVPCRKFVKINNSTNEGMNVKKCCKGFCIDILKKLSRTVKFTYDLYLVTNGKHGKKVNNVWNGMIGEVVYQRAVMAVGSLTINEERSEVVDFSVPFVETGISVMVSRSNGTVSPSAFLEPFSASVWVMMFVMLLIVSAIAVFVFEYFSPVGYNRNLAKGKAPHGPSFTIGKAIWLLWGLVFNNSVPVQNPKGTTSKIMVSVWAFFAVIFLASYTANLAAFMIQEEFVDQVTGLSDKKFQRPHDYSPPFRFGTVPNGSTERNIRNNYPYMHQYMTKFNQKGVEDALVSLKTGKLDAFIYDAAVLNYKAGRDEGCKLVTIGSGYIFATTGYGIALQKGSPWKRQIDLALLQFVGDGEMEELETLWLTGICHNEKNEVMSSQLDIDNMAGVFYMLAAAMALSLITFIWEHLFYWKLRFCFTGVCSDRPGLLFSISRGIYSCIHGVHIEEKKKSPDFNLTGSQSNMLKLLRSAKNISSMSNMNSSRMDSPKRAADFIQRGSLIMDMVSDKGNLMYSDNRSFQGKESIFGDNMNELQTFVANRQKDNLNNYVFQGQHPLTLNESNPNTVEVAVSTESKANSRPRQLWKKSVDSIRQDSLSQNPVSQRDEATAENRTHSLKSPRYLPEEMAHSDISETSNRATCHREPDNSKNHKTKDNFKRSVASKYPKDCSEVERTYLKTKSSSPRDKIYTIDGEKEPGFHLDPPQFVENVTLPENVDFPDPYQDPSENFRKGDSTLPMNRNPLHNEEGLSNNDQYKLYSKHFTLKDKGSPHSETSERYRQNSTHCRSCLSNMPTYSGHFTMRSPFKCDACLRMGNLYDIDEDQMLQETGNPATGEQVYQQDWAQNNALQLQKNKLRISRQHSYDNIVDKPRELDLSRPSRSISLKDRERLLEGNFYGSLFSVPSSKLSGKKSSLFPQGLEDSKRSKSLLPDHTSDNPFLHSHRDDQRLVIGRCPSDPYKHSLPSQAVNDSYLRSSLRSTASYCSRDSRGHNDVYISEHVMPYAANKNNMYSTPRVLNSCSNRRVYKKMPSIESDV
UniProt Q00960, 27-1482: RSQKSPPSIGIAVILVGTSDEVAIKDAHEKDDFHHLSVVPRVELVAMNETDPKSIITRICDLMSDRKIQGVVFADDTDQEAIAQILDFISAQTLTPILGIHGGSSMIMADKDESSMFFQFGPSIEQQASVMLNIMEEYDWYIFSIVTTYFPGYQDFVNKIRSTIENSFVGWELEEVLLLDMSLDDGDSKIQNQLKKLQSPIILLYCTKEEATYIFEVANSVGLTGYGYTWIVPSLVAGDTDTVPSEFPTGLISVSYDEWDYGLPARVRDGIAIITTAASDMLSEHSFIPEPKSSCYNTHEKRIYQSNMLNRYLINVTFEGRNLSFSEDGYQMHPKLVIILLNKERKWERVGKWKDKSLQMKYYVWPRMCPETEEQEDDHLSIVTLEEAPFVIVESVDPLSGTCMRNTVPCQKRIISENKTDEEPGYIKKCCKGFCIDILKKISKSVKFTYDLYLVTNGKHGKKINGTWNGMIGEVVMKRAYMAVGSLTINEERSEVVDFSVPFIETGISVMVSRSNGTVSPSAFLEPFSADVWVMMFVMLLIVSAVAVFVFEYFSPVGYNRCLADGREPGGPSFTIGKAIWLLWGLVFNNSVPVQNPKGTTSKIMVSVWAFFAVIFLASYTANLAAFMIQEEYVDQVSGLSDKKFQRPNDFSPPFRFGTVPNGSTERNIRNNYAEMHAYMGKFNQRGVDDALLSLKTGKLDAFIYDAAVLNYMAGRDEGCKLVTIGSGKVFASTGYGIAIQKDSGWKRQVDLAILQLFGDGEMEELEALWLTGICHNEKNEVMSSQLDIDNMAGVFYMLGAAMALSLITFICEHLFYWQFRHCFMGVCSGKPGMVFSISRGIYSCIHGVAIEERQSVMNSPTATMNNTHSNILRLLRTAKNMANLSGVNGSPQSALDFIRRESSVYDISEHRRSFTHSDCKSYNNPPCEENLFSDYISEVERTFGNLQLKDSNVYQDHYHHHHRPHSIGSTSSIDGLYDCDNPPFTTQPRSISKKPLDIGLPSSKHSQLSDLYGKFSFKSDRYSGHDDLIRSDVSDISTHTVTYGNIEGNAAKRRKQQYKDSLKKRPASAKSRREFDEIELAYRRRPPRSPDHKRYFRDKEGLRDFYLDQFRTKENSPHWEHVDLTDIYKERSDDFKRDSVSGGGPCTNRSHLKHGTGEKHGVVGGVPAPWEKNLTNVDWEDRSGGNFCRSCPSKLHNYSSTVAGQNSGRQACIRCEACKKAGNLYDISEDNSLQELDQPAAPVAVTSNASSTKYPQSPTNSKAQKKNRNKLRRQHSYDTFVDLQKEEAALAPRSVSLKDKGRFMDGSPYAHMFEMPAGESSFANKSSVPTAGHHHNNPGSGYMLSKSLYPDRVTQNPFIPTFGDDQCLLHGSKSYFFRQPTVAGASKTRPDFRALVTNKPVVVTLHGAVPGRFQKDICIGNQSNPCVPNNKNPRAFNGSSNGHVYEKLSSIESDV
UniProt Q14957, 20-1233: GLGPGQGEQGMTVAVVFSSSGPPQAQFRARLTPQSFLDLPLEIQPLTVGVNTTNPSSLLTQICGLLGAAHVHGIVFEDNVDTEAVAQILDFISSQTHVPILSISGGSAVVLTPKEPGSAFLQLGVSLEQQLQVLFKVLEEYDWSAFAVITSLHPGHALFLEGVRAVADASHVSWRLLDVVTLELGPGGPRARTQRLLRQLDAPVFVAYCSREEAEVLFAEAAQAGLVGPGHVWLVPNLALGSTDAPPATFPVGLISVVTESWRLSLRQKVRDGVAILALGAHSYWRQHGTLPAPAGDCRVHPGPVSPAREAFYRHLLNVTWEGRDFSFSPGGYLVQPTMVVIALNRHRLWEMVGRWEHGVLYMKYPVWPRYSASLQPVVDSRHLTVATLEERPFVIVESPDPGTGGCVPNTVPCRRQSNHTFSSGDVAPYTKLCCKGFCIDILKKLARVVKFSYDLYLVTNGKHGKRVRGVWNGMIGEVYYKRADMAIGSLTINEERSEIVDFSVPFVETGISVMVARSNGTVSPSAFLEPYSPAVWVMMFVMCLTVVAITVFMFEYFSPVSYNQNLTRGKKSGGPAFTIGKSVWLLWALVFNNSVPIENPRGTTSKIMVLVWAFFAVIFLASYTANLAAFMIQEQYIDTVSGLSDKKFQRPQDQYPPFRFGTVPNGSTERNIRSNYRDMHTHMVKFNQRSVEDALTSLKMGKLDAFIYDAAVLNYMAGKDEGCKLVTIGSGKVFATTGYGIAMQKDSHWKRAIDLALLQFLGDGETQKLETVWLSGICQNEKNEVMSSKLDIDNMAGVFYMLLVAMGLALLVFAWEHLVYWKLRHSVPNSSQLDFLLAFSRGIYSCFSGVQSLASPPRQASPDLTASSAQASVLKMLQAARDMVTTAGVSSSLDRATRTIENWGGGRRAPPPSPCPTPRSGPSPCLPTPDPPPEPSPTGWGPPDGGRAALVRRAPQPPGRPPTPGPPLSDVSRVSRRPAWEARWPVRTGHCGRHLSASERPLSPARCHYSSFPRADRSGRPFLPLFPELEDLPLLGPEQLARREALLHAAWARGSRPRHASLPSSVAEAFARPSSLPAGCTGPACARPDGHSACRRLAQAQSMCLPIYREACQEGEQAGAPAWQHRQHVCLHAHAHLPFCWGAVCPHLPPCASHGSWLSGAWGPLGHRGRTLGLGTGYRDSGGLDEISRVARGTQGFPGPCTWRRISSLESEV
UniProt O15399, 28-1336: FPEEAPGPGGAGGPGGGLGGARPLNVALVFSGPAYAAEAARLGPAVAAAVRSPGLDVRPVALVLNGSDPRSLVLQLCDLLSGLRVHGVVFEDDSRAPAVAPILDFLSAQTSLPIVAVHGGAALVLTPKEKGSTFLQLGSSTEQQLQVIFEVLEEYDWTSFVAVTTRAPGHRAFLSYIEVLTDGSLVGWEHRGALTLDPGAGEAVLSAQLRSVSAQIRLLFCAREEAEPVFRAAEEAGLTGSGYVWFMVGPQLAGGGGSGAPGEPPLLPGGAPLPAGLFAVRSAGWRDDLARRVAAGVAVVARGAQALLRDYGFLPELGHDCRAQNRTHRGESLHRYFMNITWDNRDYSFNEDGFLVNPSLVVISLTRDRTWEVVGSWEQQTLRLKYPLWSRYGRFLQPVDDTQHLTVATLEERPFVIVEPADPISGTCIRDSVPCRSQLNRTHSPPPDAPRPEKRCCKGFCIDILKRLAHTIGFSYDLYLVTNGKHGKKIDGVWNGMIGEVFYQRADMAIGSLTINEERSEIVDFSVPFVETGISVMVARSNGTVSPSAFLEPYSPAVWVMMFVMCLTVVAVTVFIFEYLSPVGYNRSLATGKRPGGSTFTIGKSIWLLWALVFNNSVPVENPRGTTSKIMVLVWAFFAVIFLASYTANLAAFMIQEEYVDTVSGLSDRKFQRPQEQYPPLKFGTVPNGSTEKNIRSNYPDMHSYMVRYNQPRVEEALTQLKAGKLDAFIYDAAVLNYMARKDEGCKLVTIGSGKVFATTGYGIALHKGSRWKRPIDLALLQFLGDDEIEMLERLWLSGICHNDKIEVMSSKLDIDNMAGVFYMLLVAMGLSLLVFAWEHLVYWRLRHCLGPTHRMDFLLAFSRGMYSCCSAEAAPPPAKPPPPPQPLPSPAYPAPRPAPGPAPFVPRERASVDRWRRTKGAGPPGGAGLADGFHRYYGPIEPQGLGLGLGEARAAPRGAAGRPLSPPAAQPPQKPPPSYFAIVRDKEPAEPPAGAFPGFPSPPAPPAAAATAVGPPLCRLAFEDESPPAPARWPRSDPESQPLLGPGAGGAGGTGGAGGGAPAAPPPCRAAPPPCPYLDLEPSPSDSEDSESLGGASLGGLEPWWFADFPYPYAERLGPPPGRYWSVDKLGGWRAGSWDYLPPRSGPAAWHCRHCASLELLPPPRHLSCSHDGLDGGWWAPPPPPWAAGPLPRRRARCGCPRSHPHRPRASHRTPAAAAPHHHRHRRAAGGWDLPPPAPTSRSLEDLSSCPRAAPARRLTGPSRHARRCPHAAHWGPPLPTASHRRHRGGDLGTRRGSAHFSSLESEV

In publication PMC10245146, “CNS4 causes subtype‐specific changes in agonist efficacy and reversal potential of permeant cations in NMDA receptors” (Pharmacology Research & Perspectives, 2023):

Key:
Format in all cases: cell-based
GluN1/2A NMDA receptors = biological target: T1, GluN1/2A NMDA receptors (UniProt P35439+Q12879); test: TEVC agonist dose-response, Xenopus oocytes expressing 1/2A; details: without CNS4; 100 μM glutamate constant; relative to 1 μM glycine
T1 construct: expressed in transfected cells; host or cells: Xenopus oocytes (cRNA injection)
Excerpt: (§1) NMDA receptor constructs: cDNA encoding the NMDA receptor1a subunit (GluN1a) was obtained from Dr. Nakanishi (Kyoto, Japan). cDNA encoding the GluN2B (pci_sepGluN2B), originally developed in the Malinow lab,[33] was purchased from Addgene (cat# 23998), Cambridge, MA. cDNA encoding the GluN2C and GluN2D were purchased from GenScript, New Jersey, USA. Mutated GluN1, 2A and 2B cDNA constructs capable of assembling as GluN1/2A/2B triheteromeric (1/2AB) receptors[34] were obtained from Dr. Paoletti (Laboratoire de Neurobiologie, CNRS). These constructs have been previously tested for 1/2AB receptor activity of GluN1/2A receptor‐selective potentiators.[35] […]
(§2) Electrophysiological responses were measured using a standard two‐microelectrode voltage‐clamp workstation (Warner Instruments model OC‐725C) designed to provide a fast clamp of large cells. […] Response magnitude was determined in Xenopus oocytes expressing different NMDA receptor subunits (GluN1/2A, 1/2B, 1/2C, 1/2D, and 1/2A/2B) by the steady plateau response elicited by bath application of different agonist concentrations. […] Statistical significance was determined at the overall alpha level 0.05, using appropriate statistical methods as described in all figure captions. […]

GluN1/2B NMDA receptors = biological target: T2, GluN1/2B NMDA receptors (Rattus norvegicus, UniProt P35439+Q00960); test: TEVC agonist dose-response, Xenopus oocytes expressing 1/2B; details: without CNS4; 100 μM glutamate constant; relative to 1 μM glycine
T2 construct: SEP (super-ecliptic pHluorin; printed only as 'sep' in the plasmid name); host or cells: Xenopus oocytes (cRNA injection)
Excerpt: as §1, §2

GluN1/2C NMDA receptors = biological target: T3, GluN1/2C NMDA receptors (UniProt P35439+Q14957); test: TEVC agonist dose-response, Xenopus oocytes expressing 1/2C; details: without CNS4; 100 μM glutamate constant; relative to 100 nM glycine
T3 construct: host or cells: Xenopus oocytes (cRNA injection)
Excerpt: as §1, §2

GluN1/2D NMDA receptors = biological target: T4, GluN1/2D NMDA receptors (UniProt O15399+P35439); test: TEVC agonist dose-response, Xenopus oocytes expressing 1/2D; details: without CNS4; 10 μM glycine; 100 μM glutamate constant; relative to 100 nM glycine
T4 construct: host or cells: Xenopus oocytes (cRNA injection)
Excerpt: as §1, §2

NCC(=O)O [glycine, reference compound]
Glycine efficacy: relative fold change in current at highest glycine concentration (GluN1/2A NMDA receptors): 2.89 ± 0.11 fold
Glycine efficacy: relative fold change in current at highest glycine concentration (GluN1/2B NMDA receptors): 1.45 ± 0.13 fold
Glycine efficacy: relative fold change in current at highest glycine concentration (GluN1/2C NMDA receptors): 1.03 ± 0.02 fold
Glycine efficacy: relative fold change in current at highest glycine concentration (GluN1/2D NMDA receptors): 1.075 ± 0.07 fold
